{
  "source": "patent US5872130A",
  "about": "“Quinoline type mevalonoactones” (Nissan Chemical Industries Ltd., priority 1988, dated 1999)",
  "tested_on": "cholesterol biosynthesis in Hep G2 cells",
  "experiment": "Test B (B-1): Inhibition of cholesterol biosynthesis in culture cells (Hep G2)",
  "assay_type": "cell-based",
  "conditions": "[2-14C]sodium acetate added at 0 hr (B-1), 4 hrs incubation, read-out: I50, inhibitory activities by Test B-1",
  "method": "Test B: Inhibition of cholesterol biosynthesis in culture cells\nHep G2 cells at over 5th passage were seeded to 12 well plates and incubated with Dulbecco's modified Eagle (DME) medium containing 10% of fetal bovine serum (FBS) at 37° C., 5% CO2 until cells were confluent for about 7 days. Cells were exposed to the DME medium containing 5% of lipoprotein deficient serum (LpDS) prepared by ultracentrifugation method for over 24 hours. Medium was changed to 0.5 ml of fresh 5% LpDS containing DME before assay and 10 μl of test compound solution dissolved in water or DMSO were added. 0.2 μCi of [2-^14 C]sodium acetate (20 μl) was added at 0 hr(B-1) or 4 hrs(B-2) after addition of compounds. After 4 hrs further incubation with [2-^14 C]sodium acetate, medium was removed and cells were washed with phosphate buffered saline(PBS) chilled at 4° C. Cells were scraped with rubber policeman and collected to tubes with PBS and digested with 0.2 ml of 0.5N KOH at 37° C. Aliquot of digestion was used for protein analysis and remaining was saponified with 1 ml of 15% EtOH-KOH at 75° C. for 1 hour. […] Counts were revised by cell protein and indicated with DPM/mg protein. Inhibitory activity of compounds was indicated with IC50.",
  "data": [
    {"smiles": "CC[C@H](C)C(=O)O[C@H]1C[C@H](O)C=C2C=C[C@H](C)[C@H](CC[C@@H](O)C[C@@H](O)CC(=O)O)[C@H]21", "note": "[CS-514]", "values": [
      {"measurement": "IC50", "result": 350, "unit": "nM"}
    ]}
  ]
}
